The values below come from ChEMBL document CHEMBL1125407, “Noncataleptogenic, centrally acting dopamine D-2 and serotonin 5-HT2 antagonists within a series of 3-substituted 1-(4-fluorophenyl)-1H-indoles” (J Med Chem, 1992).

By UniProt entry, the sequences of proteins in these tests, tags left out. Where a name states a change or a piece, a line headed by the entry shows the natural chain unless it says otherwise.
UniProt P30994: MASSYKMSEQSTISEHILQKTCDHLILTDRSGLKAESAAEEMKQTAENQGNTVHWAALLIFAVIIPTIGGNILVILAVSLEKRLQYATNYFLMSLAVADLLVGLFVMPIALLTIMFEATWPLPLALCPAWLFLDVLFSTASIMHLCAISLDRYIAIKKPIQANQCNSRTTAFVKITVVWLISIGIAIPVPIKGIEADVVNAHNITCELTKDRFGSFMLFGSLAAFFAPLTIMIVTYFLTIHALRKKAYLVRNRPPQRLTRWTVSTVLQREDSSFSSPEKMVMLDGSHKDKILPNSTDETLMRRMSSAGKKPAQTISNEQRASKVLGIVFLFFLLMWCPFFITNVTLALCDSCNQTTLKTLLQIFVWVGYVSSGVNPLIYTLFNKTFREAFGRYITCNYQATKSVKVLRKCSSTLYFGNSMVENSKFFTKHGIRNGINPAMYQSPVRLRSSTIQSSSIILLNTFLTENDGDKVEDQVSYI
UniProt P08909: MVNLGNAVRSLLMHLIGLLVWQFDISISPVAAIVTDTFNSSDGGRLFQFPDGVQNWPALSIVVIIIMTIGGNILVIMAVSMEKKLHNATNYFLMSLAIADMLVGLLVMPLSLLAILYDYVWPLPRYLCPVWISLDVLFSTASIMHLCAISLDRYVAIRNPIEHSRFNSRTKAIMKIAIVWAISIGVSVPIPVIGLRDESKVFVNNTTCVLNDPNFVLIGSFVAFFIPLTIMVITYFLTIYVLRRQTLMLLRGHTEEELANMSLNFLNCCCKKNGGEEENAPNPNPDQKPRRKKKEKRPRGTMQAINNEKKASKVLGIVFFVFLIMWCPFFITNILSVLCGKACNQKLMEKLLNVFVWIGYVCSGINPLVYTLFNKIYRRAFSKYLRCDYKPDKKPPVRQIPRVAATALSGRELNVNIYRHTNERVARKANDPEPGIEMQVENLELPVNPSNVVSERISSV
UniProt P14842: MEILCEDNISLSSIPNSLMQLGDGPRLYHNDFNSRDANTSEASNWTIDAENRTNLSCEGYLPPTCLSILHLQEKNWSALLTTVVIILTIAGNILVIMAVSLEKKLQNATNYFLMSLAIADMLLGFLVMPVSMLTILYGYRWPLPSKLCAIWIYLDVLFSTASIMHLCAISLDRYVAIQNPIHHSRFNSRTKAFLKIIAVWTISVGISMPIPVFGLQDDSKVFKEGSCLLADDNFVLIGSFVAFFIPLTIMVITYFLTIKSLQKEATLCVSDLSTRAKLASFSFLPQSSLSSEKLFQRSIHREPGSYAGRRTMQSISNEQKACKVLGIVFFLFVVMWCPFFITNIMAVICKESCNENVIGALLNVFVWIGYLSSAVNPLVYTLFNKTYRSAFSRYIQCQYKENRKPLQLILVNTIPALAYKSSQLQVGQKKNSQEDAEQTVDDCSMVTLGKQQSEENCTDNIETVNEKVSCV

This assay has as its target Serotonin 2 (5-HT2) receptor (Rattus norvegicus, UniProt P30994+P08909+P14842). The assay can be described thus: Inhibition of [3H]ketanserin binding to rat 5-hydroxytryptamine 2 receptors. The class given is protein assay.

Molecule `O=C1NCCN1CCN1CCC(c2cn(-c3ccc(F)cc3)c3ccc(Cl)cc23)CC1` [SERTINDOLE] gave a half-inhibitory concentration (IC50) of 0.48 nM.
